# Patent US20260042815A1, “UNIVERSAL T CELLS AND COMPOSITIONS AND METHODS OF USE THEREOF” (The Trustees of the University of Pennsylvania, priority 2022, published 2026)
# B1: HLA-E SCT: HLA-E/beta-2-microglobulin/peptide single chain trimer presenting the HLA-C*03:01 leader peptide (SEQ ID NO: 40) (protein)
# chain: VMAPRTLILGGGASGGGGSGGGGS[about 100 residues skipped]GGGGSGGGGSGGGGSGGGGSGSHSLKYFHTSVSRPGRGEPRFISVGYVDDTQFVRFDNDAASPRMVPRAPWMEQEGSEYWDRETRSARDTAQIFRVNLRTLRGYYNQSEAGSHTLQWMHGCELGPDGRFLRGYEQFAYDGKDYLTLNEDLRSWTAVDTAAQISEQKSNDASEAEHQRAYLEDTCVEWLHKYLEKGKETLLHLEPPKTHVTHHPISDHEATLRCWALGFYPAEITLTWQQDGEGHTQDTELVETRPAGDGTFQKWAAVVVPSGEEQRYTCHVQHEGLPEPVTLRWKPASQPTIPIVGIIAGLVLLGSVVSGAVVAAVIWRKKSSGGKGGSYSKAEWSDSAQGSESHSL
# How the values were obtained:
# NK cells [1] = assay: Standard 4 h 51Chromium release assay, K562 HLA-E SCT transfectants as targets, NK cells as effectors; assay type: cell-based, human; conditions: for NK cell-mediated lysis of K562 targets: across experiments
# Excerpt: Furthermore, the present studies have utilized the SCT format as a facile platform to generate a new molecular entity that solves a critical gap in the ability to engraft normal donor cells or tissues in an unrelated allogeneic host. […] The present studies designed and tested an HLA-E single-chain trimer (ScT) as an inhibitory receptor for UCART cells and also determined the key NK cell activating receptors that recognize stress ligands on UCART cells (FIG. 5). By LV gene transfer, a panel of K562 transfectants have established to develop a screening platform that permitted functional assays using NK cells as effectors to determine the degree of protection against cytolysis (FIG. 6 through FIG. 9). […] Next, seven HLA-E SCT constructs expressed in K562 were examined and used as targets in a standard 4 h ^51Chromium release assay. NK cells were used from several normal donors as effector cells to study the ability of HLA-E SCT to act as a decoy to inhibit NK cell mediated killing. It was well-established that both NKG2A and NKG2C bind HLA-E present on the target cell. It was the integration of combined signaling through the two NKG2 receptors that determined NK cell effector function.
# NK cells from normal donor 517 were expanded for 10 d in IL-2/IL-15 and used as effector cells at the indicated effector to target ratios (E:T ratio) in a standard 4 hr ^51Cr release assay. Target cells (10,000 per well) studied included K562 parental and K562 transfected with various HLA-E single chain trimer constructs. Target cells were labeled with ^51Chromium for 1 h, washed 3×, and then plated in 96 well trays containing NK cells. All assays are performed in triplicate. After 4 h incubation at 37° C., 5% CO2, the plate was removed from the incubator and centrifuged for 10 minutes. 50 ul of supernatant was carefully removed and counted in a MicroBeta2 LumiJET microplate counter (Perkin Elmer). Data were represented as percent-specific lysis reported as mean+/−SD.
# NK cells from five normal donors were studied in a 4 h ^51Cr release assay using K562 HLA-E SCT targets. […] As a control, parental K562 cells were killed by NK cells from all donors.
# NK cells [2] = assay: Real time apoptotic cell death analysis (xCELLigence eSIGHT live cell imaging), mCherry K562 targets plus NK cells; assay type: cell-based, human
# Protocol: Real time apoptotic cell death analysis (live cell imaging with cellular impedance) was performed using the xCELLigence real time cell analysis eSIGHT system (Agilent). mCherry labeled-K562 target cells were plated (10,000/well) and allowed to adhere for 24 h. Effector NK cells (normal donor 517) were added at a 5:1 E:T ratio and the assay was continued for 3 additional days. Red total integrated intensity (live imaging) was measured every 15 min for 3 days. Decreased in intensity reflected elimination of targets. […] Values reflected the mean of triplicate wells+/−SD.
# The balance of NK populations (NKG2A vs. NKG2C) within a donor influences the functional outcome upon SCT engagement by NK cells (FIG. 24).
# NK cells [3] = assay: Flow based NK cell activation assay (CD107a degranulation) with K562 cells +/- HLA-E SCT; set-up: species or system human
# Protocol: Flow based assay was utilized to examine NK cell activation by K562 cells+/−HLA-E SCT. NK cells were mixed with K562 cells (1:1 ratio) for 6 h and then stained with antibodies to CD107a to measure degranulation of the major subsets (NKG2A+ and NKG2C+). The bar graph summarized the representative results that indicated the protection provided by HLA-E SCT for the NKG2A+ subset (FIG. 19). In contrast, HLA-E SCT conferred no protection of K562 by NKG2C+ subset.
molecule,measurement,setting,value
B1,Reduction in K562 lysis,"NK cells [1]; 4-hour assay, 2:1 E:T ratio, compared with other HLA-E SCT constructs",most significant reduction in K562 lysis
same,Inhibition of NK cells by HLA-E SCT,NK cells [1]; NK485 NK cells (significant NKG2C),less susceptible to inhibition
same,Inhibition of NK cells by HLA-E SCT,NK cells [1]; NK517 NK cells (NKG2A exclusively),almost completely inhibited
same,Inhibition of NK cell lysis of K562 targets,NK cells [1]; NK cells from donor 517,inhibited most significantly
same,Inhibition of NK cell subset by HLA-E SCT,NK cells [1]; NKG2A+/NKG2C+ double positive subset,inhibited
same,Inhibition of NK cell subset by HLA-E SCT,NK cells [1]; NKG2C+ single positive NK cells,minimally inhibited
same,NK cell-mediated lysis of K562 targets,NK cells [1],consistently reduced NK cell-mediated lysis
same,NK cell-mediated lysis of K562 targets,NK cells [1]; listed as C*0301 leader peptide,most reproducible inhibition
same,NK cell-mediated lysis of K562 targets,NK cells [1]; listed as HLA-E/C,Decreased lysis
same,Protection of K562 targets from killing in live cell imaging,"NK cells [2]; ND561 NK cells (21% NKG2C+), 3 d",partial protection
same,Protection of K562 targets from killing in live cell imaging,"NK cells [2]; NK cells of normal donor 517 (primarily NKG2A), 5:1 E:T, 3 days",complete lysis protection
same,Inhibition of NK cells in degranulation (CD107a) assays,NK cells [3]; K562 transduced targets,significant inhibition of NK cells
same,"CD107a degranulation / protection, NKG2A+ subset","NK cells [3]; NKG2A+ NK cells, K562 1:1 ratio, 6 h",protection
same,"CD107a degranulation / protection, NKG2C+ subset","NK cells [3]; NKG2C+ NK cells, K562 1:1 ratio, 6 h",no protection
